Values of other authors, collected in patent publication US20220257540A1, “COMPOSITIONS AND METHODS FOR TREATMENT OF HEPATITIS B VIRUS INFECTION” (ANHUI RONGHANG BIOTECH DEVELOPMENT CO., LTD., priority 2019, published 2022).

The chains behind the UniProt entries cited, without tags or fusion partners.
UniProt P08183, whole entry: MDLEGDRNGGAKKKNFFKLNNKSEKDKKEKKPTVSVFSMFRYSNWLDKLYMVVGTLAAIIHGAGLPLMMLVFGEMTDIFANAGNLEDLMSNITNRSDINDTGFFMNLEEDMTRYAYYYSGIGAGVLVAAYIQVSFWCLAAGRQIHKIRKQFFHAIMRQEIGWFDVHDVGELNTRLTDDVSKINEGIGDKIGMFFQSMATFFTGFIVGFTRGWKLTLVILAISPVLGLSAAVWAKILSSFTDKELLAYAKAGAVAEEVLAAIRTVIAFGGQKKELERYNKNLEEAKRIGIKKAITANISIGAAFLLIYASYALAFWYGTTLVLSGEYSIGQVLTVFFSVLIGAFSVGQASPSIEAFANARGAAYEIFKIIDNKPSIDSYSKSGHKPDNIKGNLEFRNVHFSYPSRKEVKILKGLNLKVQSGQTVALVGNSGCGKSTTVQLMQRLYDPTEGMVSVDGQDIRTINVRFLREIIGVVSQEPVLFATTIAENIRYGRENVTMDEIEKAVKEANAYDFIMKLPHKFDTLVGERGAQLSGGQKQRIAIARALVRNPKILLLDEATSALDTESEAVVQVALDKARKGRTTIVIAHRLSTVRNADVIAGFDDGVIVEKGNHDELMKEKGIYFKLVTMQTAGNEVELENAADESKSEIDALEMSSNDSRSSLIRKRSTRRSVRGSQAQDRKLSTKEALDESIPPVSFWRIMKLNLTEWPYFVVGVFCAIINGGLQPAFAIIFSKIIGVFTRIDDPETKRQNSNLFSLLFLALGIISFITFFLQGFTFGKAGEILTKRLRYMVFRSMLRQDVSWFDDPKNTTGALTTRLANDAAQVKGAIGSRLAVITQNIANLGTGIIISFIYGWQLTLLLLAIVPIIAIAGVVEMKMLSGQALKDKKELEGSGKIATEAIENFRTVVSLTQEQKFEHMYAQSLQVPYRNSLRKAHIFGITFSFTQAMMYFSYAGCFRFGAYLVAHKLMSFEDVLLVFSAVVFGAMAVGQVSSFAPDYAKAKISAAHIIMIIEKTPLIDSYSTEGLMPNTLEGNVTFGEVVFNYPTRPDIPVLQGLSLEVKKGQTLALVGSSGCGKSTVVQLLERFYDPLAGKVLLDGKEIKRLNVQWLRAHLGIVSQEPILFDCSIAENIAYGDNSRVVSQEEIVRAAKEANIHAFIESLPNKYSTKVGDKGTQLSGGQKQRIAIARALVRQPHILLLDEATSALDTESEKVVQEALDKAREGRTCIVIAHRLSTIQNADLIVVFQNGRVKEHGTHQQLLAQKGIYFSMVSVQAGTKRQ

Target: P-gp (Homo sapiens, UniProt P08183)
Settings: cited from earlier work

SMILES: Cl.Cl.Cl.O[C@@H](COc1cccc2ncccc12)CN1CCN([C@@H]2c3ccccc3[C@@H]3[C@H](c4ccccc42)C3(F)F)CC1 [LY335979, (2R)-1-{4-[(1aR,6r,10bS)-1,1-Difluoro-1,1a,6,10b-tetrahydrodibenzo[a,e]cy-clopropa[c]cyclohepten-6-yl]piperazin-1-yl}-3-(quinolin-5-yloxy)propan-2-o-1,trihydrochloride]
- potency relative to the first and second-generation P-gp inhibitors: about 10 fold
